Literature values, collected in patent US11474103B2, “Systems for detection” (dated 2022).

System: dogs
Conditions: concentration in air detectable by dogs

CC(C)([N+](=O)[O-])C(C)(C)[N+](=O)[O-]
detectable by dogs in air: (detectable by dogs at 0.5 ppb
